The chains behind the UniProt entries cited, without tags or fusion partners.
UniProt P22455, whole entry, looked up: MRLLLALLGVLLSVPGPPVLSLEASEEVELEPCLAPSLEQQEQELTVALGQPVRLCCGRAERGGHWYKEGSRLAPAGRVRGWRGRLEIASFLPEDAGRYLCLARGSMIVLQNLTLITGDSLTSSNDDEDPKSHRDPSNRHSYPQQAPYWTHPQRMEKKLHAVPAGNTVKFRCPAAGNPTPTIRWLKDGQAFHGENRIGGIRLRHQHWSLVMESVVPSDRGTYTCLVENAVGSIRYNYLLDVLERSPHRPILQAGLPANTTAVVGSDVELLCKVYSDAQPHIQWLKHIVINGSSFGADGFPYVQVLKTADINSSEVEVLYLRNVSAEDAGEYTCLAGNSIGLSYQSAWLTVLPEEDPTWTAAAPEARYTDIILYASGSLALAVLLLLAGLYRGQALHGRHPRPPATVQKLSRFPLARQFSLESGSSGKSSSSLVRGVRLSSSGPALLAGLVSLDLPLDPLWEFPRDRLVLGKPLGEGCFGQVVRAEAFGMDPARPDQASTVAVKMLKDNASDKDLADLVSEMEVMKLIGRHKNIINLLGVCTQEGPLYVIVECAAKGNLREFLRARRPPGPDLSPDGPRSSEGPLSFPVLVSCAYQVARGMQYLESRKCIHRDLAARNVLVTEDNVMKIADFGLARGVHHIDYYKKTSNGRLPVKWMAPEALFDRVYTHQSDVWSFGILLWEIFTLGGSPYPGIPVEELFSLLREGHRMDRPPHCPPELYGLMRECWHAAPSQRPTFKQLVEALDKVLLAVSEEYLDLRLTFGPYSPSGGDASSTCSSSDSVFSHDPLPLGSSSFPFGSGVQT

According to ChEMBL document CHEMBL5055662, “Characterization of an aromatic trifluoromethyl ketone as a new warhead for covalently reversible kinase inhibitor design” (Bioorg Med Chem, 2021):

Target: Fibroblast growth factor receptor 4 (Homo sapiens) (UniProt P22455)
Assay: Reversible covalent binding affinity to recombinant His-tagged human FGFR4 expressed in baculovirus expression system assessed as recovery of kinase activity preincubated for 120 mins followed by dialysis of protein for 4 days by MALDI-TOF MS analysis relative to control
Settings: time 5880.0 min

## COCCNc1cc(NC(=O)N2CCCc3cc(CN4CCN(C)CC4=O)c(C=O)nc32)ncc1C#N
  Activity: 50%
